Bioassay records as filed in PubChem.
A selection: hits, their analogues and other compounds. The true share with any hit is near 1.3%.
miR-122 sensor = miR-122 Renilla sensor signal increase in Huh7, primary screen, miR-122 inhibitor project, cell-based, single point, plate reader; Huh7 miR-122 Renilla luciferase sensor, 48 h; neutral wells = 0, positive control = 100; activation (reporter increase), % at 12.5 µM; actives 0.3% (n = 340,000); AID 602342, 2012;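 active = mean replicate activation score at least 90 and every replicate individually at or above 90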;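 note: higher luciferase means less miR-122 activity so hits act as miR-122 inhibitors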
PglD inh = C. jejuni PglD acetyltransferase inhibitors, primary screen, biochemical, DTNB colorimetric, single point | UDP-N-acetylbacillosamine N-acetyltransferase PglD (Campylobacter jejuni) | purified PglD enzyme, DTNB colorimetric CoA detection | inhibition, % at 12.5 µM | actives 0.098% (n = 360,000); in the data active = inhibition above about 16%, passing the limit was not always enough
UUG fidelity = modulators of start codon recognition fidelity in yeast; S. cerevisiae UUG-firefly luciferase reporter, luminescence/redox ratio; AID 602363; 350,000 tested, 0.13% active; activity score, % at 18.7 µM;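 active = replicate mean at a twofold rise or more, about +100% in these data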;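 also: firefly luciferase made from a UUG start codon reports start codon fidelity; reporter light over untreated wells divided by growth signal over untreated wells; some hits fall short of that in this replicate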
CFTR F508del cor = F508del CFTR correction, initial screen, CFBE line, single point | CFBE cells, YFP halide quenching; stimulated with forskolin plus potentiator P3; % fluorescence drop versus neutral controls | activity (quench increase), % at 7.58 µM | actives 0.36% (n = 350,000);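 active = mean added fluorescence quench of at least 8% versus neutral control, with both replicates also reaching 8%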;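 note: cells transiently co-express mutant CFTR-F508del with the halide-sensitive YFP; corrector assay measuring rescue of mutant channel to the surface after 24 h compound exposure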
EWS-Fli inh = EWS/Fli-driven NR0B1 reporter inhibitors, primary screen, A673 cells, NR0B1 luciferase, luminescence, MLPCN library; viability-normalised; inhibition, % at 12.6 µM; actives 0.67% (n = 350,000);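 active = mean inhibition of at least 50% after viability correction, with every replicate also passing that limit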;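 note: firefly luciferase signal divided by Alamar Blue viability fluorescence both relative to DMSO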
LGR2 antag = inhibitors of bursicon-induced LGR2 CRE-luciferase signal, primary screen, cell-based, HEK293, CRE-luciferase reporter, bursicon stimulation; bursicon-stimulated, 4 h; AID 720647, 2013; inhibition, % at 9.99 µM; Drosophila bursicon receptor LGR2 (rickets); actives 0.35% (n = 380,000);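 active = drop in luminescence signal, shown as inhibition above about 50% in the replicate tests, limit read from the data, passing the limit was not always enough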;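 note: agonist challenge used bursicon conditioned medium at about half maximal strength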
An asterisk follows results filed as active; [ ] = remark or other dose.

`O=C1OCC2=C1C(c1ccc3c(c1)OCO3)c1cc3c(cc1O2)OCO3` (configuration not stated) gave CFTR F508del cor 9.8*, EWS-Fli inh 38.6 and LGR2 antag -30.4.
COc1cc(C2C3=C(COC3=O)Oc3cc4c(cc32)OCO4)cc(OC)c1O (configuration not stated) was read as EWS-Fli inh 56.7* and LGR2 antag -5.2.
Screening COc1cc(C2C(C#N)=C(N)Oc3cc(O)ccc32)cc(OC)c1OC (configuration not stated) returned miR-122 sensor 2.8, PglD inh -2.0 and UUG fidelity -21.2.
For COc1cc(C2c3cc4c(cc3C3OC(=O)C2C3CO)OCO4)cc(OC)c1OC (configuration not stated) the results were miR-122 sensor 12.6, PglD inh 3.9, UUG fidelity -8.0, CFTR F508del cor -5.1, EWS-Fli inh 38.3 and LGR2 antag -50.3.
COc1cc(C2C3=C(COC3=O)Oc3cc4c(cc32)OCO4)cc(OC)c1OC (configuration not stated) was read as miR-122 sensor 37.4, CFTR F508del cor 1.9, EWS-Fli inh 36.4 and LGR2 antag -27.0.
`COc1cc(C2C(C#N)=C(N)Oc3cc4c(cc32)OCO4)cc(OC)c1OC` (configuration not stated) gave CFTR F508del cor -5.7, EWS-Fli inh 61.7* and LGR2 antag 3.0.
CO[C@H]1CN(C)C(=O)c2cc(NS(C)(=O)=O)ccc2OC[C@H](C)N(C(=O)C2CCCCC2)C[C@@H]1C was read as miR-122 sensor 0.2[16.7 µM], PglD inh 2.3, UUG fidelity -0.8, CFTR F508del cor -0.7, EWS-Fli inh 3.4 and LGR2 antag 12.7.
CCN(CC)c1ccc(NS(=O)(=O)c2cn(C)c(=O)n(C)c2=O)c(C)c1 was read as PglD inh -0.1, UUG fidelity -14.4, CFTR F508del cor 3.6, EWS-Fli inh 8.3 and LGR2 antag 24.9.
For Cc1ccc(S(=O)(=O)N2CC[C@@H]3[C@H]2c2cc(-c4ccccc4F)ccc2N[C@@H]3CO)cc1 the results were miR-122 sensor 17.5[16.7 µM], PglD inh 1.0, UUG fidelity 6.4, CFTR F508del cor -0.2, EWS-Fli inh -4.3 and LGR2 antag -2.1.
For COc1ccc(S(=O)(=O)N2CC[C@@H]3[C@@H](CO)Nc4ccc(-c5cccc(C#N)c5)cc4[C@@H]32)cc1 the results were miR-122 sensor 21.7[16.7 µM], PglD inh 0.9, UUG fidelity -4.6, CFTR F508del cor 12.6*, EWS-Fli inh 54.0* and LGR2 antag -11.0.
`Cc1ccc(S(=O)(=O)N2CC[C@@H]3[C@@H](CO)Nc4ccc(-c5ccccc5F)cc4[C@@H]32)cc1` gave miR-122 sensor 153.6*[16.7 µM], PglD inh 1.3, UUG fidelity -5.0, CFTR F508del cor -3.3, EWS-Fli inh 5.1 and LGR2 antag 10.4.
`COc1ccc(S(=O)(=O)N2CC[C@@H]3[C@@H](CO)Nc4ccc(C5=CCCCC5)cc4[C@@H]32)cc1` gave CFTR F508del cor 9.0* and LGR2 antag -3.0.
COc1ccc(-c2ccc3c(c2)[C@H]2[C@H](CCN2S(=O)(=O)c2ccc(OC)cc2)[C@@H](CO)N3)cc1 was read as miR-122 sensor 12.0[16.7 µM], PglD inh 4.5, UUG fidelity -11.7, CFTR F508del cor 20.2*, EWS-Fli inh 41.1 and LGR2 antag -9.2.
For NS(=O)(=O)c1ccc(CCNC(=O)COC(=O)CCN2C(=O)C3CC=CCC3C2=O)cc1 (configuration not stated) the results were miR-122 sensor 1.9, PglD inh 6.8, UUG fidelity -9.2, CFTR F508del cor 1.7, EWS-Fli inh -4.2 and LGR2 antag -4.1.
`C[C@H](CO)N1C[C@H](C)[C@H](CN(C)C(=O)c2ccccc2)Oc2ncc(C#C[C@@H](C)O)cc2C1=O` gave miR-122 sensor -5.6[16.7 µM], PglD inh 1.9, UUG fidelity -7.8, CFTR F508del cor 3.3, EWS-Fli inh -11.7 and LGR2 antag 0.3.

Continued; the last three above are carried over.
COc1ccc(-c2ccc3c(c2)[C@H]2[C@H](CCN2S(=O)(=O)c2ccc(OC)cc2)[C@@H](CO)N3)cc1 was read as miR-122 sensor 12.0[16.7 µM], PglD inh 4.5, UUG fidelity -11.7, CFTR F508del cor 20.2*, EWS-Fli inh 41.1 and LGR2 antag -9.2.
For NS(=O)(=O)c1ccc(CCNC(=O)COC(=O)CCN2C(=O)C3CC=CCC3C2=O)cc1 (configuration not stated) the results were miR-122 sensor 1.9, PglD inh 6.8, UUG fidelity -9.2, CFTR F508del cor 1.7, EWS-Fli inh -4.2 and LGR2 antag -4.1.
`C[C@H](CO)N1C[C@H](C)[C@H](CN(C)C(=O)c2ccccc2)Oc2ncc(C#C[C@@H](C)O)cc2C1=O` gave miR-122 sensor -5.6[16.7 µM], PglD inh 1.9, UUG fidelity -7.8, CFTR F508del cor 3.3, EWS-Fli inh -11.7 and LGR2 antag 0.3.
For Cc1sc2ncnc(N3CCC(C(=O)Nc4ccccc4C(C)(C)C)CC3)c2c1C the results were miR-122 sensor -2.6, PglD inh -0.1, UUG fidelity -16.2, CFTR F508del cor 0.9, EWS-Fli inh -3.4 and LGR2 antag 33.1.
`O=C(Nc1cccc(F)c1)N[C@@H]1CC[C@H](CCn2cc(Cc3ccccc3)nn2)O[C@@H]1CO` gave PglD inh 1.8, UUG fidelity -10.5, CFTR F508del cor 1.3, EWS-Fli inh -5.6 and LGR2 antag 4.0.
For CC(=O)Nc1cccc(-c2ccnc3c2CC(C)(C(=O)Nc2ccc(F)c(Cl)c2)O3)c1 (configuration not stated) the results were miR-122 sensor -2.3, PglD inh 6.9, UUG fidelity 2.8, CFTR F508del cor 3.1, EWS-Fli inh 13.3 and LGR2 antag -2.7.
Screening CC(C)(C)C(=O)Nc1ccc(Sc2ccc([N+](=O)[O-])cc2)cc1 returned CFTR F508del cor 1.6, EWS-Fli inh 11.9 and LGR2 antag 22.5.
For CC(=O)Nc1ccc(Sc2ccc([N+](=O)[O-])o2)cc1 the results were miR-122 sensor -26.6, PglD inh 5.0, UUG fidelity -51.3, CFTR F508del cor -6.9, EWS-Fli inh 61.3* and LGR2 antag 10.0.
COc1ccc(Cl)cc1NC(=O)CNC(c1ccccc1)c1ccccc1 was read as PglD inh 5.4, UUG fidelity -20.4, CFTR F508del cor 0.5, EWS-Fli inh 3.1 and LGR2 antag 7.3.
For CCCCC(=O)Nc1ccc(C(=O)NNC(=O)c2cccs2)cc1 the results were EWS-Fli inh 6.1 and LGR2 antag -6.7.
For O=C(Nc1ccccc1)Nc1ncc([N+](=O)[O-])s1 the results were miR-122 sensor -12.0, CFTR F508del cor -0.8, EWS-Fli inh 13.6 and LGR2 antag 65.4*.
Cc1nc(C)c(C(=O)Nc2ncc([N+](=O)[O-])s2)o1 was read as miR-122 sensor -9.1, PglD inh -1.1, UUG fidelity -38.3, CFTR F508del cor 0.1, EWS-Fli inh 57.5* and LGR2 antag 43.2.
For CCOC(=O)c1c[nH]c2nc(C)ccc2c1=O the results were CFTR F508del cor 4.0, EWS-Fli inh -16.1 and LGR2 antag -2.8.
`Cc1cc(NC(=O)CN2C(=O)NC3(CCCCCC3)C2=O)ccc1Br` gave miR-122 sensor 7.8, PglD inh -4.2, UUG fidelity 1.2, CFTR F508del cor 31.8*, EWS-Fli inh 2.9 and LGR2 antag -19.2.
Screening O=C(CN1C(=O)NC2(CCCC2)C1=O)Nc1nc(-c2ccc(F)cc2)cs1 returned miR-122 sensor 2.5, PglD inh -2.1 and UUG fidelity -1.7.
